The text below walks through data of patent publication US6521751B1, “Recombinant nucleic acid sequences and methods for determining both genotoxicity and mutagenicity of a sample and the kinetics of the genotoxicity” (Vlaamse Instelling voor Technologisch Onderzoek (VITO), priority 1998, dated 2003).

One data set has as its system E. coli (sfiA-lacZ). As to conditions: cited from earlier work.
Data set [1] has as its system novel biosensor systems in E. coli and in S. typhimurium strains. Put plainly: Subject SOS promoter-lux systems (general statements). As to conditions: from a concentration of 7,5 ng/ml.

As for `CO[C@@]12[C@H](COC(N)=O)C3=C(C(=O)C(C)=C(N)C3=O)N1C[C@@H]1N[C@@H]12` [Mitomycin C], the “SOS (result)” value in the data set with E. coli (sfiA-lacZ) is “pos”. Further, in data set [1], the induction ratios entry was “higher than 2”.
